From patent US11918770B2, “Implants for localized drug delivery and methods of use thereof” (The Regents of the University of California, priority 2014, dated 2024)

By UniProt entry, the sequences of proteins in these tests, tags left out.
UniProt P03372, whole entry: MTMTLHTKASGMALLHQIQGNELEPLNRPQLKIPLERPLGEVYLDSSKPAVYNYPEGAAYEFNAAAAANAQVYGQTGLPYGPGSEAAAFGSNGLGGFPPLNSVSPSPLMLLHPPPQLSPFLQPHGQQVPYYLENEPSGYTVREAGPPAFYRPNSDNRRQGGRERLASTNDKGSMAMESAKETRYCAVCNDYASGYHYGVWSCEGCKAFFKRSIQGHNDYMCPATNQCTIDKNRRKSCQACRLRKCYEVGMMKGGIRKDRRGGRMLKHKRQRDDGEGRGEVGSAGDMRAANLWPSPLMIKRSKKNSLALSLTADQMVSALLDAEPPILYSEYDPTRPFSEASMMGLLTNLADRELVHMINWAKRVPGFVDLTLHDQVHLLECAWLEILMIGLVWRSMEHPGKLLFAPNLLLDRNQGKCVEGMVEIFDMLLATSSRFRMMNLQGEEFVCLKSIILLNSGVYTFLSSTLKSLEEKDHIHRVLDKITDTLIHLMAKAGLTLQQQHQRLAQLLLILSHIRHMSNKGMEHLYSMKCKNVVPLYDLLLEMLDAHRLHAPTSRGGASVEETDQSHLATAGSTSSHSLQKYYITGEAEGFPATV

Biological target: estrogen receptor (ER) (Homo sapiens, UniProt P03372)
Experiment: Western blot for ER expression in T47D cells
Format: cell-based
Details: fulvestrant released from Silastic tubing

C[C@]12CC[C@@H]3c4ccc(O)cc4C[C@@H](CCCCCCCCC[S+]([O-])CCCC(F)(F)C(F)(F)F)[C@H]3[C@@H]1CC[C@@H]2O (stereo partly shown) [fulvestrant]
duration of down-regulation of ER expression: > 12 weeks
